Where a name gives a salt, the structure may show the parent alone. Read-outs that look alike come from different tables or passages of the source.
Key:
[1] = target: human α2A adrenergic receptor (Homo sapiens, UniProt P08913); assay: Competition binding, [3H]rauwolscine, α2A receptor; conditions: Table 2, cloned human receptor
[2] = target: human α1B adrenergic receptor (Homo sapiens, UniProt P35368); assay: Radioligand binding, [3H]prazosin, cloned human α1B adrenergic receptor
human 5HT1Dα receptor = target: T1, human 5HT1Dα receptor (Homo sapiens, UniProt P28221); assay: [3H]serotonin competition binding, 5HT1Dα receptor; conditions: Table 2, cloned human receptor; read-out: Serotonin 5HT1Da (pK1)
T1 construct: host or cells: LM(tk-) clonal cell line Ltk-8-30-84

By UniProt entry, the sequences of proteins in these tests, tags left out. Where a name states a change or a piece, a line headed by the entry shows the natural chain unless it says otherwise.
UniProt P08913, whole entry: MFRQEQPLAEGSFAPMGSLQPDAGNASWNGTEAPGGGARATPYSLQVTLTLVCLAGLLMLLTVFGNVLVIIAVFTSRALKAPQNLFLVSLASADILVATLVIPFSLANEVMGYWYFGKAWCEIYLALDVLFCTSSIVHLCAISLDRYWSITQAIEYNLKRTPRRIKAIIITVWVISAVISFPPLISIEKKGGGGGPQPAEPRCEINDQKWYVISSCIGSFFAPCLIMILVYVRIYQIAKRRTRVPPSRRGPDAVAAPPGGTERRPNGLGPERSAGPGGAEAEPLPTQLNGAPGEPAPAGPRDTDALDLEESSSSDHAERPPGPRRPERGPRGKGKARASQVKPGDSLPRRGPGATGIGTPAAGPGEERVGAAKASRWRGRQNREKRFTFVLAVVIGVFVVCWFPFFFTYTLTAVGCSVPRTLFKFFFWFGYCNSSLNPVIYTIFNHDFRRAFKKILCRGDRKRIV
UniProt P35368, whole entry: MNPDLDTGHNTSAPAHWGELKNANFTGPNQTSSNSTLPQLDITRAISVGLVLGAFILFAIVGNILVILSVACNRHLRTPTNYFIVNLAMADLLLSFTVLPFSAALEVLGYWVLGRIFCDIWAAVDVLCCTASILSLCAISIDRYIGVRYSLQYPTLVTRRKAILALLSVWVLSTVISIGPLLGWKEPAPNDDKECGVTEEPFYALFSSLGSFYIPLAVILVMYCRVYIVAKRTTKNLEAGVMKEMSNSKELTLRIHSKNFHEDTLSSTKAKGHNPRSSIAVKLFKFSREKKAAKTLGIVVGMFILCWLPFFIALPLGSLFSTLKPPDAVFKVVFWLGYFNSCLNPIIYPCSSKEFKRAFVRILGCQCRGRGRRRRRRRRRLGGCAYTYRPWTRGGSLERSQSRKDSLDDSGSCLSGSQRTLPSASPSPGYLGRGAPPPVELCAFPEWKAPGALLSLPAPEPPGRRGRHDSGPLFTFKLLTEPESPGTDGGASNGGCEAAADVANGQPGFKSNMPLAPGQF
UniProt P28221: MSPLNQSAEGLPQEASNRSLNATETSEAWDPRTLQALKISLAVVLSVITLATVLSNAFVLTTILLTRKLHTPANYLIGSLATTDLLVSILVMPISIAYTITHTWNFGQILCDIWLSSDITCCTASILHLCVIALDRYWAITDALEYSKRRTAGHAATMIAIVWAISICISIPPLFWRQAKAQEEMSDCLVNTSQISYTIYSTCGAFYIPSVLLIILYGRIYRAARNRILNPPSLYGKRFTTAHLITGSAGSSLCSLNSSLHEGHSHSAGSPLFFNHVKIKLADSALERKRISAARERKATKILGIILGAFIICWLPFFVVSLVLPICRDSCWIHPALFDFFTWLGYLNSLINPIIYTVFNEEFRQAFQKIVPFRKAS
UniProt P28222, whole entry: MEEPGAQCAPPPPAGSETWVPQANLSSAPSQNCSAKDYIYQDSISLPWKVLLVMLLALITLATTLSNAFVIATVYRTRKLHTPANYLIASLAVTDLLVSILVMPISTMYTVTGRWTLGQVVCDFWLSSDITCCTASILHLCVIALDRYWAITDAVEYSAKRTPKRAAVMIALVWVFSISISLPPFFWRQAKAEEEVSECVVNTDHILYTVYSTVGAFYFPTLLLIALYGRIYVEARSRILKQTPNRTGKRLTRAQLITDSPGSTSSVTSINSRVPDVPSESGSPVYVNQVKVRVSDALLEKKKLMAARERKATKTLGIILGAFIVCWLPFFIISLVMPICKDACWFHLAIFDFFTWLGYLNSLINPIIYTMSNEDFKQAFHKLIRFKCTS
UniProt P28566: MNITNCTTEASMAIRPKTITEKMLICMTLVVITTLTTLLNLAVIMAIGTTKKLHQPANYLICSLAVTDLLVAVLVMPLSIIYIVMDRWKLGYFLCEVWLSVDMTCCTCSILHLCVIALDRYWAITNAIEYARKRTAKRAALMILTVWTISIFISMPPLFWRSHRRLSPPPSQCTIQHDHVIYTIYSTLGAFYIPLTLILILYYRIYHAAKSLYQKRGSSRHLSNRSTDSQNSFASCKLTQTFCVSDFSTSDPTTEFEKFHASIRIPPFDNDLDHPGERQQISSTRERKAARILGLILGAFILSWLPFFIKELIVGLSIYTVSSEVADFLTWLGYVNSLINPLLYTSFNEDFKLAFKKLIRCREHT

human 5HT1Dβ receptor = target: T2, human 5HT1Dβ receptor (Homo sapiens, UniProt P28222); assay: [3H]serotonin competition binding, 5HT1Dβ receptor; conditions: Table 2, cloned human receptor; read-out: Serotonin 5HT1Db (pK1)
T2 construct: host or cells: LM(tk-) clonal cell line Ltk-11

human 5HT1E receptor = target: T3, human 5HT1E receptor (Homo sapiens, UniProt P28566); assay: [3H]serotonin competition binding, 5HT1E receptor; conditions: Table 2, cloned human receptor; read-out: Serotonin 5HT1E (pK1)
T3 construct: host or cells: LM(tk-) clonal cell line 5HT1E-7

human 5HT1F receptor = target: T4, human 5HT1F receptor (Homo sapiens, UniProt P30939); assay: [3H]serotonin competition binding, 5HT1F receptor; conditions: Table 2, cloned human receptor; read-out: Serotonin 5HT1F (pK1)
T4 construct: host or cells: LM(tk-) clonal cell line L-5-HT1F
T4 sequence (P30939 1-366): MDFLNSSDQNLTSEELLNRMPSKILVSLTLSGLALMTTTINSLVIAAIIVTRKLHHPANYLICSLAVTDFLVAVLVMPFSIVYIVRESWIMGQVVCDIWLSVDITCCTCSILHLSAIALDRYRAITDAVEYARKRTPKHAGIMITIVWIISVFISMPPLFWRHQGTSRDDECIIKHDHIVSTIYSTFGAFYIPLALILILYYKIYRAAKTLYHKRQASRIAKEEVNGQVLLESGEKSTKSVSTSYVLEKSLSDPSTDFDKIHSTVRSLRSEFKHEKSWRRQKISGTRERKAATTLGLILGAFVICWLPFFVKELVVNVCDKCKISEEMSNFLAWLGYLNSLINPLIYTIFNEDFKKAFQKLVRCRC

[3] = tested on: Sprague-Dawley normotensive rats; conditions: rat; for BP fall / orthostatic fall in BP: i.v.; for orthostatic fall in BP: second tilt

`O=C(CCCN1CCC(NC(=O)c2ccccc2)CC1)c1ccc(Cl)cc1` [Compound 7] was tested, and the “Alpha-2 Adrenergic a2a (pK1)” value [1] was 6.19.
For `COC(=O)C1=C(C)NC(C)=C(C(=O)OCCCN2CCC(c3ccccc3)(c3ccccc3)CC2)C1c1ccc([N+](=O)[O-])cc1.Cl` (centres unmarked) [Compound 8, 2,6-Dimethyl-4-(4-nitrophenyl)-1,4-dihydropyridine-3,5-dicarboxylic acid [3-(4,4-diphenylpiperidin-1-yl)propyl] ester methyl ester hydrochloride], the “Human Alpha-1 Adrenergic (pK1) a1B” value ([2]; Table 1, cloned human receptor) was 7.07 and the “Alpha-1 Adrenergic a1B (pK1)” value ([2]; Table 2, cloned human receptor) was 7.07.
Molecule `COc1cc2nc(N3CCN(C(=O)C4CCCO4)CC3)nc(N)c2cc1OC` (centres unmarked) [Terazosin, 2 [4-(Tetrahydro-2-furoyl)piperazinyl]-4-amino-6,7-dimethoxyquinazoline hydrochloride] has a Ki (human 5HT1Dα receptor) greater than 1 µM, a Ki (human 5HT1Dβ receptor) greater than 1 µM and a Ki (human 5HT1E receptor) greater than 10 µM. For the same molecule, the Ki (human 5HT1F receptor) was greater than 10 µM, the BP fall ([3]; Dose 1, 10 ug/kg) was “+” and the “orthostatic fall in BP” value ([3]; Dose 1, 10 ug/kg) was “+”. The BP fall ([3]; Dose 2, 100 ug/kg) was “++”, the “orthostatic fall in BP” value ([3]; Dose 2, 100 ug/kg) was “++ or +++” and the BP fall ([3]; Dose 3, 1000 ug/kg) was “+++”. For the same molecule, the “orthostatic fall in BP” value ([3]; Dose 3, 1000 ug/kg) was “++ or +++” and the “orthostasis (Table 3)” value ([3]; doses 10, 100, 1000 ug/kg) was “consistently cause orthostasis at the lowest dose”.
